In patent US20250186600A1, “EXCIPIENT COMPOUNDS FOR PROTEIN FORMULATIONS” (Comera Life Sciences, Inc., priority 2020, published 2025):

Key:
[1] = test system: omalizumab; assay: Diffusion interaction parameter kD of omalizumab by DLS (Example 62); settings: Table 62A series; omalizumab 10 to 0.6 mg/mL, 0.1M excipient, His HCl pH 6.0, 25° C.
[2] = test system: omalizumab; assay: Viscosity of omalizumab solution by DLS of gold nanoparticles (Example 62); settings: pH 6
[3] = test system: ustekinumab; assay: Stabilization at low pH, Sypro orange fluorescence (Example 45); settings: excipient 5 mg/mL, ustekinumab 1 mg/mL, glycine acidification buffer pH 2.6, Sypro orange fluorescence
[4] = test system: ustekinumab; assay: Urea denaturation, Sypro orange fluorescence (Example 44); assay type: physicochemical; settings: excipient 5 mg/mL, ustekinumab 1 mg/mL, 6M urea, 20 mM histidine pH 6.0, Sypro orange fluorescence

Q: Cyclohexane methylamine was tested. Which kD [1] did it give?
A: -20.9 mL/g

Q: What about the “Viscosity normalized to control” value [2] of the same substance?
A: 0.87

Q: With Methyl cytidine as the substance, how does the “% change in stability” value [3] read?
A: 21.7%

Q: How did the “% increased stability” value [4] turn out when methyl cytidine was run?
A: 4.0%
